What was measured:
[1] = molecular target: T1, ATP-dependent translocase ABCB1 (Homo sapiens, UniProt P08183); assay: Inhibition of human Pgp in A2780 cells after 30 mins by Hoechst 33342 assay; format: cell-based
[2] = molecular target: T1, ATP-dependent translocase ABCB1; assay: Inhibition of human Pgp in A2780 cells after 30 mins by calcein AM assay; format: cell-based

Amino acid sequences for entries named in this document (tags omitted).
UniProt P08183, whole entry: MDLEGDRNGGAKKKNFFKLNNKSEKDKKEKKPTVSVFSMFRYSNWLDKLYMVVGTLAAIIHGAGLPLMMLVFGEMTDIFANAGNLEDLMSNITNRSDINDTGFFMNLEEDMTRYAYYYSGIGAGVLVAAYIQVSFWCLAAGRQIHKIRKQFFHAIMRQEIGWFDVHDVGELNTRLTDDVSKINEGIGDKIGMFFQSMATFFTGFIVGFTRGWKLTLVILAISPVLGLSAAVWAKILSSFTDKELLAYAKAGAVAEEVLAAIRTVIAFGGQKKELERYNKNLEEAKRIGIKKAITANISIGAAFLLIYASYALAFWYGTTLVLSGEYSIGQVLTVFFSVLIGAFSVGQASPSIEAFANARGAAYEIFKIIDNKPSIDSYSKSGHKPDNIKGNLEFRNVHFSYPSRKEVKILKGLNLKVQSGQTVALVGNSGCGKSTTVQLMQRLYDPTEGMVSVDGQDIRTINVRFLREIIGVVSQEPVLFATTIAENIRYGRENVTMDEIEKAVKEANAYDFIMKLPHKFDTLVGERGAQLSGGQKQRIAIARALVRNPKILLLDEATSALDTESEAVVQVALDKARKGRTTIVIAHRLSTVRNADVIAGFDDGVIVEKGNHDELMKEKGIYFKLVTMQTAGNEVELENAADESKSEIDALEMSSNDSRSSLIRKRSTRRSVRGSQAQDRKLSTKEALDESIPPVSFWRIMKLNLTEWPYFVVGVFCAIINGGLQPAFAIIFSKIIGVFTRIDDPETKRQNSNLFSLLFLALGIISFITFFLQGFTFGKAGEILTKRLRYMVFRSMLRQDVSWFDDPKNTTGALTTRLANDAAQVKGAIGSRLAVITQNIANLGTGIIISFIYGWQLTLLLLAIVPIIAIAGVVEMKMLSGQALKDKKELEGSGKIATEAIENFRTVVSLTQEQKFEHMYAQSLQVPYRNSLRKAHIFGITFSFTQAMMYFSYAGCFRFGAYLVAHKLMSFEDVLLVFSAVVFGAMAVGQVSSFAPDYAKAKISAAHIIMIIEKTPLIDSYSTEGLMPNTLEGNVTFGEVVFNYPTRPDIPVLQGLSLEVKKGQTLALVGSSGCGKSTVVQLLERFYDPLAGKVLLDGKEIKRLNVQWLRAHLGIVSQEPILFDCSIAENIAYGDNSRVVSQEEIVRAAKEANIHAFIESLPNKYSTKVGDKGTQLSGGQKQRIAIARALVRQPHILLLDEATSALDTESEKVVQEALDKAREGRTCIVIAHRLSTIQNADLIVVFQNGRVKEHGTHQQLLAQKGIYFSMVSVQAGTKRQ

| SMILES | IC50 [1] | IC50 [2] |
| --- | --- | --- |
| COc1cc2c(cc1OC)CN(CCc1ccc(NC(=O)c3ccc(Br)cc3)cc1)CC2 | 2.45 µM | 3.16 µM |
| O=C(Nc1ccc(CCN2CCc3ccccc3C2)cc1)c1cnc2ccccc2c1 | 0.417 µM | 0.525 µM |
| COc1cc2c(cc1OC)CN(CCc1ccc(NC(=O)c3cc(OC)c(OC)cc3[N+](=O)[O-])cc1)CC2 | 4.9 µM | 6.17 µM |
| COc1ccc(C(=O)Nc2ccc(CCN3CCc4cc(OC)c(OC)cc4C3)cc2)cc1OC | 5.37 µM | 4.17 µM |
| Nc1ccccc1C(=O)Nc1ccc(CCN2CCc3ccccc3C2)cc1 | 9.55 µM | 9.33 µM |

Source: ChEMBL document CHEMBL1144049, “Functional assay and structure-activity relationships of new third-generation P-glycoprotein inhibitors” (Bioorg Med Chem, 2008)
